Molecular target: COX-2 (Homo sapiens, UniProt P35354)
Test: UV-vis titration with COX-2 (Benesi-Hildebrand)
Type: binding
Parameters: purchased Cayman Chemical Co. 560131

Sequences of proteins named here, by UniProt entry; tags and fusion partners are left off. Residues count along the entry.
UniProt P35354, 18-604: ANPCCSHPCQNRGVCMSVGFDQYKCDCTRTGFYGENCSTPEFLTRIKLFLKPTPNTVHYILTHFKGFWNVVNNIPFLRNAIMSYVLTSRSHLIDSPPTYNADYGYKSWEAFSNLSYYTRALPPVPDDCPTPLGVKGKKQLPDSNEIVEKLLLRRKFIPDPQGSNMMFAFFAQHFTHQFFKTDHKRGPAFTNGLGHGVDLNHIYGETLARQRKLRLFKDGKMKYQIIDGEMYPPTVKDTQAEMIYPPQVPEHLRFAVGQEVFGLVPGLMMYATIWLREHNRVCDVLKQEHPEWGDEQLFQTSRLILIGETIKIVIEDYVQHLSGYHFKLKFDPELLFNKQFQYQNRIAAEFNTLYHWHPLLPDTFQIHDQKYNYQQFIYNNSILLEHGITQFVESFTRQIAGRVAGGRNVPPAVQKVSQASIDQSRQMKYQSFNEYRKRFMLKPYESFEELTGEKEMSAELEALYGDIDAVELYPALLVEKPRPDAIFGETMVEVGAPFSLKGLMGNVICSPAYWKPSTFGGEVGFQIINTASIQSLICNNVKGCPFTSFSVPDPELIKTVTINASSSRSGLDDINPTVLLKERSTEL

O=C1NC(=O)C(=Cc2cn(C[C@H](O)Cn3c4ccccc4c(=O)c4ccccc43)c3ccccc23)C(=O)N1 [(S)-3a]
Kd: 1870 nM

Source: paper PMC6030096, “Synergy of Physico-chemical and Biological Experiments for Developing a Cyclooxygenase-2 Inhibitor” (Scientific Reports, 2018)
